According to ChEMBL document CHEMBL5625274, “Improved synthesis, molecular modeling and anti-inflammatory activity of new fluorinated dihydrofurano-naphthoquinone compounds” (Bioorg Med Chem Lett, 2024):

What was measured:
[1] = test system: RAW264.7; assay: Antiinflammatory activity in LPS activated mouse RAW264.7 cells assessed as reduction in IL-1beta level; format: functional, cell-based; settings: dose 2-8 µg/ml
[2] = test system: RAW264.7; assay: Antiinflammatory activity in LPS activated mouse RAW264.7 cells assessed as reduction in IL-6 level; format: functional, cell-based; settings: dose 2-8 µg/ml

Structure (SMILES) | Activity [1] | Activity [2]
O=C1C2=C(C(=O)c3ccccc31)[C@@H](c1ccc(F)cc1)[C@H](C(=O)c1ccccc1)O2 | Dose-Dependent Effect | Dose-Dependent Effect
COc1cc(F)c([C@@H]2C3=C(O[C@H]2C(=O)c2ccccc2)C(=O)c2ccccc2C3=O)cc1F | Dose-Dependent Effect | Dose-Dependent Effect
COc1ccc([C@@H]2C3=C(O[C@H]2C(=O)c2ccccc2)C(=O)c2ccccc2C3=O)cc1F | Dose-Dependent Effect | Dose-Dependent Effect
COc1c(F)cc([C@@H]2C3=C(O[C@H]2C(=O)c2ccccc2)C(=O)c2ccccc2C3=O)cc1F | Dose-Dependent Effect | Dose-Dependent Effect
